Test results published in publication PMC11167311, “Revolutionizing GPCR–ligand predictions: DeepGPCR with experimental validation for high-precision drug discovery” (Briefings in Bioinformatics, 2024).

Sequences of proteins named here, by UniProt entry; tags and fusion partners are left off. Residues count along the entry.
UniProt P43220, 24-463 limits assumed: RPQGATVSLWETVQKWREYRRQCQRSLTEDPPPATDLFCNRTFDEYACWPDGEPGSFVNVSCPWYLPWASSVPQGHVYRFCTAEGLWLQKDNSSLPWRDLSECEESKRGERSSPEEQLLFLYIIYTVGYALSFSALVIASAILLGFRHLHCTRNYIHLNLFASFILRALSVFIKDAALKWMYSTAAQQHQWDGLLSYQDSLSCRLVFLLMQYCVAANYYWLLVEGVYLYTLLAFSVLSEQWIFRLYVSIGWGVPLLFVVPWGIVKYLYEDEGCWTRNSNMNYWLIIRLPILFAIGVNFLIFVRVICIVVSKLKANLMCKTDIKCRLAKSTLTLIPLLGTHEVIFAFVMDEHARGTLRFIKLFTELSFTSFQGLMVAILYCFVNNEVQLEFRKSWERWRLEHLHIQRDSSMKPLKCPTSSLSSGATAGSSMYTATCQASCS

How the values were obtained:
[1] = biological target: T1, hGLP-1R (Homo sapiens, UniProt P43220); assay: DMR antagonism (desensitization) assay in HEK293-GLP-1R cells, taspoglutide challenge; assay type: cell-based; settings: desensitization when stimulated by agonist taspoglutide
Description: (§1) HEK293 cells were transfected with 8 μg of pcDNA3.1-GLP-1R plasmid mixed with 24 μl of Lipofectamine 2000 reagent (Invitrogen). After 24 h post-transfection, clones were selected using a complete medium containing 600 μg/ml G418 (LabLEAD Co., Beijing, China) and 6 μg/ml blasticidin S (Beyotime Co., Shanghai, China). Stable clones were selected through treatment with 600 μg/ml G418 and 6 μg/ml blasticidin S for 3–4 weeks to obtain the successfully transfected cell line HEK293-GLP-1R. Following culture for 3–4 months, the stably transfected cell line HEK293-GLP-1R was established. […] The culture medium in the 384-well biosensor plates was replaced with 30 μl of Hank’s balanced salt solution (1 × HBSS) and then further incubated inside the system for 1 h before measurement. […] All DMR responses were background-corrected.

[2] = biological target: T1, hGLP-1R; assay: DMR agonism assay in HEK293-GLP-1R cells; assay type: cell-based
Description: as §1

Row | Compound | GLP-1R activity (result in words) [1] | compound-triggered DMR signal in GLP-1R-HEK293 cells [2]
1 | CCOC(=O)C1CCCN(C(=O)c2cccc(CSc3nc(C)cc(N4CCN(c5cccc(C(F)(F)F)c5)CC4)n3)c2)C1 (stereo not shown) | possesses GLP1R receptor antagonistic activity | does not induce a DMR signal
2 | COCc1nc(-c2ccccc2)nc(N2CCN(C(C)=O)CC2)c1Cc1cccc(C(F)(F)F)c1 | GLP-1R receptor antagonistic activity at 200 μM | either do not induce a DMR signal or exhibit a weak signal
3 | Cc1cc(C)c2c(n1)-n1cccc1C(c1ccc(F)cc1)N(C(=O)Nc1cccc(Cl)c1)C2 (stereo not shown) | partial GLP-1R antagonistic activity | do not induce a DMR signal
4 | Cc1ccccc1C1=NOC(CN(Cc2cccc(F)c2)CC(O)COCC(C)C)C1 (stereo not shown) | GLP-1R receptor antagonistic activity at 200 μM | either do not induce a DMR signal or exhibit a weak signal
5 | COc1ccc2c(c1)NC1(CCN(C(=O)NCCc3ccccc3)CC1)c1cccn1-2 | partial GLP-1R antagonistic activity | do not induce a DMR signal
